The target of the first assay is T1, Prostaglandin G/H synthase 2 (Mus musculus) (UniProt Q05769).
T1 sequence (whole entry): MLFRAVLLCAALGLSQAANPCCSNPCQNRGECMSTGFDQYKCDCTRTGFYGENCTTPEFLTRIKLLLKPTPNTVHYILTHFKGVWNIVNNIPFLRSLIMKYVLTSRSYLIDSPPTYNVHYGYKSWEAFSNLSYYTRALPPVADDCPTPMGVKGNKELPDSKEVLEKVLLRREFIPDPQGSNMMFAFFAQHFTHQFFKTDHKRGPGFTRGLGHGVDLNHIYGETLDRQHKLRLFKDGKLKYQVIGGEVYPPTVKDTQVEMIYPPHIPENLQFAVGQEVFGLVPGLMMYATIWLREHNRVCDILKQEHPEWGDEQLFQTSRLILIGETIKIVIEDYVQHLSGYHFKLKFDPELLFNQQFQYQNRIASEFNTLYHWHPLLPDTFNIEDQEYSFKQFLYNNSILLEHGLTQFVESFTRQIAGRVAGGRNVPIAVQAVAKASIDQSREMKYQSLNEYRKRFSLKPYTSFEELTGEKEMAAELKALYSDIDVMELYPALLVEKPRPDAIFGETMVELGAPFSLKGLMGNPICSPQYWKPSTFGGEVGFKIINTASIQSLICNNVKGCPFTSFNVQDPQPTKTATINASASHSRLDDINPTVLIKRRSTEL
Put plainly: Inhibition of purified mouse COX-2 assessed as inhibition of PGE2/PGD2 formation preincubated at 10 uM for 3 mins before arachidonic acid substrate addition measured after 30 seconds by LC-MS-MS method. In outline: (§1)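 Purified murine COX-2 (50 nM) preincubated 3 min with test agent at 10 µM in DMSO, alongside a solvent control. Then 2-AG or AA added at 5 µM, 37 °C, for 30 s. Read-out is percent inhibition of substrate oxygenation versus control. Mean ± SD, n = 6.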
As to `O=C(O)Cc1ccccc1Nc1c(F)cccc1F`, the inhibition turned out to be 10%.

For the molecule `O=C(O)Cc1ccccc1Nc1ccccc1`, the inhibition came out at 15%. For `O=C(O)Cc1ccccc1Nc1ccccc1Cl`, the inhibition was 0%. For the molecule `O=C(O)Cc1ccccc1Nc1c(F)cccc1Cl`, the inhibition was 15%. Same read-out and setting: for `Cc1ccc(Nc2c(F)cccc2Cl)c(CC(=O)O)c1` the value was 25%.

A further assay deals with T1, Prostaglandin G/H synthase 2 (Mus musculus). Briefly: Inhibition of purified mouse COX-2 assessed as inhibition of PGE2-G/PGD2-G formation preincubated at 10 uM for 3 mins before 2-AG substrate addition measured after 30 seconds by LC-MS-MS method. The method, boiled down:
as §1
With `O=C(O)Cc1ccccc1Nc1ccccc1`, the inhibition is 8%.

The values above are taken from ChEMBL document CHEMBL2434913, “Exploring the molecular determinants of substrate-selective inhibition of cyclooxygenase-2 by lumiracoxib” (Bioorg Med Chem Lett, 2013).
